Tests used:
[1] = system: Vero-E6 cells; conditions: 72 h, MTT
[2] = system: IBV (Gray strain); test: Anti-IBV activity (inhibition of virus replication, MTT method); format: cell-based, Infectious bronchitis virus; conditions: CC50/IC50

SMILES: NC(=O)c1ncn([C@@H]2O[C@H](CO)[C@@H](O)[C@H]2O)n1 [Ribavirin, ribavirin, reference compound]
- TD0 (maximum noncytotoxic concentration) [1]: 0.78 ± 0.15 mM
- SI (selective index) [2]: >8.47

— article PMC6259611, “Comparative Anti-Infectious Bronchitis Virus (IBV) Activity of (-)-Pinene: Effect on Nucleocapsid (N) Protein” (Molecules, 2011)
